Values quoted from earlier work as cited in patent US20080247987A1, “Block Copolymer Compositions and Uses Thereof” (ANGIOTECH INTERNATIONAL AG, priority 2005, published 2008).

Conditions: cited from earlier work

## insulin
  solubility in water: practically insoluble in water
